For one test, the target named is T1, α1A (rabbit urethra) (Oryctolagus cuniculus, UniProt O02824).
T1 construct: tested for α1A functional activity using rabbit urethra; from tissue; host or cells: rabbit urethra
T1 sequence (O02824 1-466): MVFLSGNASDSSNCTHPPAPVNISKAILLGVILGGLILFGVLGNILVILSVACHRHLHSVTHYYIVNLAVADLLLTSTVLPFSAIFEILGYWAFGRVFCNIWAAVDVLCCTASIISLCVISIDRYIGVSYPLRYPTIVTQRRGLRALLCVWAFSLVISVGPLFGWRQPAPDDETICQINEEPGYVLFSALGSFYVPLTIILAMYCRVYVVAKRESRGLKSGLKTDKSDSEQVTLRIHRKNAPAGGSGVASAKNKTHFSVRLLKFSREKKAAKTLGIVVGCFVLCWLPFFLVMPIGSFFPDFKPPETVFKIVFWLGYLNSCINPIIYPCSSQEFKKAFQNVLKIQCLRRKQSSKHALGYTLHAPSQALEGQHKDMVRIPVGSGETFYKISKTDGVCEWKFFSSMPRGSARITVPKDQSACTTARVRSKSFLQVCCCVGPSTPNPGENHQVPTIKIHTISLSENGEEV
Kind of test: Agonist contraction of smooth muscle tissue, rabbit urethra. The format is cell-based. To be noted: for EC50: read-out: Agonist Tissue Response (pD2) α1A (rab ureth) (converted). The method, then: Most of the compounds were tested for α1A functional activity using rabbit urethra as follows. Female New Zealand white rabbits (2.0-3.5 Kg) were sedated with CO2 and decapitated. […] Subsequent experimental conditions were as described above for the other tissues. Agonist concentration response curves were cumulative except for the vas deferens assay in which the transient response made such measurements impractical.

Sequences of proteins named here, by UniProt entry; tags and fusion partners are left off.
UniProt P23944, whole entry: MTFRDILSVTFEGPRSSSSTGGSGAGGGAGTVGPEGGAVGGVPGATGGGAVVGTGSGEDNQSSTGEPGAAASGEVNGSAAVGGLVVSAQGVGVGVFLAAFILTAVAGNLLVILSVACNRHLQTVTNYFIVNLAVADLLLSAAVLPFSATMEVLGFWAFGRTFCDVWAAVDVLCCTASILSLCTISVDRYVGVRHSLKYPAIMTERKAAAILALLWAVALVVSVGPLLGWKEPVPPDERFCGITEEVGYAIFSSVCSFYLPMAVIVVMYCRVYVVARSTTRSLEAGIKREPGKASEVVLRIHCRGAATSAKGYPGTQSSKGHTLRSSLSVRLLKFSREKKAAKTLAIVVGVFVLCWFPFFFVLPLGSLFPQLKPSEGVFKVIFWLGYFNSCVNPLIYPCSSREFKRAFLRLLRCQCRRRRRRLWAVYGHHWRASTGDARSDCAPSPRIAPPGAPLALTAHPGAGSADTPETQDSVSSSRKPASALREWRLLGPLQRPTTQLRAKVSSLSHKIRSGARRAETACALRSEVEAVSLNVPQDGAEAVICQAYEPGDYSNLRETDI
UniProt P15823, whole entry: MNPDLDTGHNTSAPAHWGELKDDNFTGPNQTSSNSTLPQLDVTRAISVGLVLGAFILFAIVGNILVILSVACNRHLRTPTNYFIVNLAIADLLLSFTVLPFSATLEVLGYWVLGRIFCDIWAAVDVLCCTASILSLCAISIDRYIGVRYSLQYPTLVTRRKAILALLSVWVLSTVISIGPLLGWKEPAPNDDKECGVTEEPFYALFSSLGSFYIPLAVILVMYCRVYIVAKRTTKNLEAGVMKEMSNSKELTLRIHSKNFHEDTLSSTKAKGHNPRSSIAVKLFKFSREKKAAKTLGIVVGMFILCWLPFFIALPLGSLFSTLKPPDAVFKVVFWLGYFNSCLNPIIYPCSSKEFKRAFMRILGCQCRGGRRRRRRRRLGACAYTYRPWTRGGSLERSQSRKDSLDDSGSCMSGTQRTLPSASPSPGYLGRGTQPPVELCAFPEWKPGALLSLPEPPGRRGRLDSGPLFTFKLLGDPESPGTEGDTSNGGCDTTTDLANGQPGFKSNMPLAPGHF
UniProt P18841, whole entry: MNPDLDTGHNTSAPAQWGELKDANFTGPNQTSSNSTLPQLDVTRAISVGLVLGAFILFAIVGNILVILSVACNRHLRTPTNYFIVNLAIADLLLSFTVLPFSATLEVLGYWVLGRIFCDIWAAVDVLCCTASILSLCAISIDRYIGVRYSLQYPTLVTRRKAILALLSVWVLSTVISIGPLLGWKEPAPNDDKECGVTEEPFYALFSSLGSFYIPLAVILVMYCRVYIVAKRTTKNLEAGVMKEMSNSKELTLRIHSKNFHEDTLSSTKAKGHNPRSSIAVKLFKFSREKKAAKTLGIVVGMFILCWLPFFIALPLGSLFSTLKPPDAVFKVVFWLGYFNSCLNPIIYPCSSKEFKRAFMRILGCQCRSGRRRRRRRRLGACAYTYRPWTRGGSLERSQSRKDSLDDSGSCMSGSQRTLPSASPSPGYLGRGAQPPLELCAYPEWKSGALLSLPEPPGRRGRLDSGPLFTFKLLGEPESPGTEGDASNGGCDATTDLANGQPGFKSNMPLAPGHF

In test [1] the target is T2, α1d (rat receptor expressed in mouse fibroblasts) (Rattus norvegicus, UniProt P23944).
T2 construct: expressed in transfected cells; host or cells: mouse fibroblasts
Kind of test: Radioligand binding with [3H]-prazosin, α1d. The method, then: (§1) For purposes of discussing α1 adrenoceptor subtypes, the IUPHAR convention of using lower case letters to define molecular clones and upper case letters to indicate pharmacologically defined adrenoceptors has been followed. Compounds of formula I were evaluated in radioligand binding assays specific for α1A (rat submaxillary gland), α1b (hamster receptor expressed in mouse fibroblasts) and α1d (rat receptor expressed in mouse fibroblasts) using [^3H]-prazosin as the radioligand as described in Knepper, et al. J. Pharm.

The test system of a further test is Anesthetized Dogs. Nature of the test: Intraurethral pressure (IUP) in anesthetized dogs. The test is classed as in vivo, dog. To be noted: anesthetized female dogs, iv. The text has this:
In vivo Functional Assays-Assessment of Intrurethral Pressure (IUP) and Mean Arterial Pressure (MAP) in Anesthetized Dogs
Female dogs (Marshall Farms, North Rose, N.Y.) greater that 2 years of age and weighing between 12 and 15 kg were used in these studies. At least 2 weeks prior to any agonist dosing, dogs were instrumented for the chronic measurement of arterial blood pressure by implanting a telemetry transducer/transmitter (TA11PA-C40, Data Sciences International, St. Paul, Minn.) into a carotid artery.
On the test day, dogs fasted since the previous afternoon were pre-anesthetized with thiopental sodium 15 mg/kg i.v. (Pentothal™, Abbott) and intubated. Anesthesia was maintained by allowing the dog to spontaneously breathe a mixture of isoflurane (2.5 to 3 volume %) and oxygen delivered by a Narkomed Standard anesthesia system (North American Drager, Telford, Pa.). An Abbocath-T™ i.v. catheter (18-G, Abbott) was inserted into the cephalic vein for the administration of agonists. A telemetry receiver (RA1310, DataSciences) was placed under the head of each dog and was interfaced to a computerized data acquisition system (Modular Instruments Inc.(MI2), Malvern, Pa.) which allowed for the continuous calibrated recording of arterial blood pressure which was electronically filtered to determine its mean value (MAP).
Dogs with chronic telemetry implants anesthetized as described above were placed in dorsal recumbency and a balloon catheter was inserted into the urethral orifice and advanced approximately 15 cm until the tip was well inside the bladder. The balloon was then inflated with 1 ml of room air and the catheter slowly withdrawn until resistance (corresponding to the bladder neck) was evident. The balloon was then deflated and the catheter withdrawn an additional 2 cm. The balloon was then reinflated and its catheter port connected to a Gould Statham P23Dd pressure transducer interfaced to a computerized data acquisition system (Modular Instruments, Inc., Malvern, Pa.) for the measurement of intraurethral pressure. Increasing iv doses of test agonists were administered and the maximum effect of each dose on IUP was recorded. The effect of each dose was allowed to return to baseline before the next dose was given.
From the resulting dose response curve, an ED5 value, for the dose causing a maximum increase in IUP of 5 mm Hg, could be estimated. An ED20 value for the dose causing a maximum increase in MAP of 20 mm Hg could also be estimated. A selectivity ratio of MAP ED20 vs. IUP ED5 was calculated.

The target of a further test is T3, α1B (rat spleen) (Rattus norvegicus, UniProt P15823).
T3 construct: α1B (rat spleen) and α1D (rat aorta) receptors; from tissue; host or cells: rat spleen
Kind of test: Agonist contraction of smooth muscle tissue, rat spleen. The test is classed as cell-based. To be noted: read-out: Agonist Tissue Response (pD2) α1B (rat spleen) (converted).

Test [2] addresses T4, α1A (rat submaxillary gland) (Rattus norvegicus, UniProt P43140).
T4 construct: α1A (rat submaxillary gland); from tissue; host or cells: rat submaxillary gland
T4 sequence (P43140 1-466): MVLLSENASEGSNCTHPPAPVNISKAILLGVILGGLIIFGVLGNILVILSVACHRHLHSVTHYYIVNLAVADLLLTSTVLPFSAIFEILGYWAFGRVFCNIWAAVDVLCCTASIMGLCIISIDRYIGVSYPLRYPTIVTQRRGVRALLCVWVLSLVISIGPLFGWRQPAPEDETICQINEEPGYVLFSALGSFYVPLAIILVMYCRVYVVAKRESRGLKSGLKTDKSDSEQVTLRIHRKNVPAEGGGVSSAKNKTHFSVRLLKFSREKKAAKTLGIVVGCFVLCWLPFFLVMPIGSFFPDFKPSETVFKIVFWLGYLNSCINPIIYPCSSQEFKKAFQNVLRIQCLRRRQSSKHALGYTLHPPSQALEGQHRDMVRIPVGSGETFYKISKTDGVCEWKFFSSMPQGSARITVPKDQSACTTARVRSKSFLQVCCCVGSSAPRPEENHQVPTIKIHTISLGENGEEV
Nature of the test: Radioligand binding with [3H]-prazosin, α1A. The method, then:
as §1

For test [3], the target named is T5, α1b (hamster receptor expressed in mouse fibroblasts) (Mesocricetus auratus, UniProt P18841).
T5 construct: expressed in transfected cells; host or cells: mouse fibroblasts
Nature of the test: Radioligand binding with [3H]-prazosin, α1b. The method, then: as §1

The next test has as its target T6, α1D (rat aorta) (Rattus norvegicus, UniProt P23944).
T6 construct: α1B (rat spleen) and α1D (rat aorta) receptors; from tissue; host or cells: rat aorta strips, endothelium removed
Kind of test: Agonist contraction of smooth muscle tissue, rat aorta. To be noted: endothelium removed, read-out: Agonist Tissue Response (pD2) α1D (rat aorta) (converted). The format is cell-based.

Where [4] appears, read: Radioligand Binding Ki α1d (Rat).

pKi: −log10 of the molar value. Where a name gives a salt, the structure may show the parent alone. Read-outs that look alike come from different tables or passages of the source.

For “5-Chloro-N-[5-(1H-imidazol-5-yl)-5,6,7,8-tetrahydro-1-naphthalenyl]-3-methyl-2,3-dihydro-1-benzothiophene-2-sulfonamide [Example 77]”, at α1A (rabbit urethra), the “Agonist Tissue Response (pD2) α1A (rab ureth)” value is reported as 4.54.
For the molecule `CS(=O)(=O)Nc1cccc2c1CCCC2c1c[nH]cn1.Cl` (stereo not shown) [Example 8, N-[5-(1H-imidazol-4-yl)-5,6,7,8-tetrahydro-1-naphthalenyl]methanesulfonamide, hydrochloride], the pKi in test [1] (setting [4]) was 5.80; in test [2] it was 6.75; in test [3], 5.34. The “Mean Selectivity Ratio MAP ED20/IUP ED5” value with Anesthetized Dogs was determined as 4.8. Moreover, the EC50 was 0.447 µM at α1A (rabbit urethra), 5.13 µM on α1B (rat spleen) and 42.7 µM on α1D (rat aorta).
Consider `CS(=O)(=O)Nc1cccc2c1CCC[C@H]2c1c[nH]cn1` [Example 9, (+)-N-[(5R)-5-(1H-imidazol-4-yl)-5,6,7,8-tetrahydro-1-naphthalenyl]methanesulfonamide], for which the pKi is 5.72 in test [1] (setting [4]), 7.04 in test [2] and 5.70 in test [3]. Also, the “Mean Selectivity Ratio MAP ED20/IUP ED5” value in the test with Anesthetized Dogs is 4.4. The EC50 on α1A (rabbit urethra) is 0.355 µM; at α1B (rat spleen) it was above 1000 µM; at α1D (rat aorta) it was above 1000 µM.
`CS(=O)(=O)Nc1cccc2c1CCC[C@@H]2c1c[nH]cn1` [Example 10, (−)-N-[(5S)-5-(1H-imidazol-4-yl)-5,6,7,8-tetrahydro-1-naphthalenyl]methanesulfonamide]: the negative logarithm of the Ki (pKi) in test [1] (setting [4]) was 5.77; in test [2], 5.94; in test [3], 4.98. Also, the EC50 at α1A (rabbit urethra) is 21.4 µM; on α1B (rat spleen), 64.6 µM; on α1D (rat aorta), 64.6 µM.
In the case of `CC(=O)Nc1cccc2c1CCCC2c1c[nH]cn1.O=C(O)/C=C\C(=O)O` (stereo not shown) [Example 16, N-[5,6,7,8-tetrahydro-5-(1H-imidazol-4-yl)-1-naphthalenyl]acetamide, maleate], the “Mean Selectivity Ratio MAP ED20/IUP ED5” value in the test with Anesthetized Dogs is listed as 3.1. Besides, the EC50 is 1.29 µM at α1A (rabbit urethra), 14.5 µM on α1B (rat spleen) and above 1000 µM on α1D (rat aorta). The molecule further showed a pKi in test [2] of 6.28.
For `CS(=O)(=O)Nc1cccc2c1OCCC2c1c[nH]cn1.O=C(O)/C=C\C(=O)O` (stereo not shown) [Example 19, N-[4-(1H-imidazol-4-yl)-3,4-dihydro-2H-chromen-8-yl]methanesulfonamide, maleate], the pKi in test [1] (setting [4]) was 5.94; in test [2], 6.32. The EC50 is 1 µM at α1A (rabbit urethra), 8.13 µM on α1B (rat spleen) and 8.32 µM on α1D (rat aorta).
Consider `CS(=O)(=O)Nc1cccc(Cc2c[nH]cn2)c1.O=C(O)/C=C\C(=O)O` [Example 21, N-[3-(1H-imidazol-4-ylmethyl)phenyl]methanesulfonamide, maleate], for which the “Mean Selectivity Ratio MAP ED20/IUP ED5” value in the test with Anesthetized Dogs is 2.7.
As for `CS(=O)(=O)Nc1cccc2c1CCC2c1c[nH]cn1` (stereo not shown) [Example 22, N-[1-(1H-imidazol-4-yl)-2,3-dihydro-1H-inden-4-yl]methanesulfonamide, maleate], the pKi in test [1] (setting [4]) was 6.12; in test [2], 7.04; in test [3], 5.69. Further, the EC50 is 0.166 µM on α1A (rabbit urethra), 3.02 µM at α1B (rat spleen) and 8.51 µM at α1D (rat aorta).
Regarding `CCS(=O)(=O)Nc1cccc2c1CCC2c1c[nH]cn1.O=C(O)/C=C\C(=O)O` (stereo not shown) [Example 39, N-[1-(1H-imidazol4-yl)-2,3-dihydro-1H-inden-4-yl]ethanesulfonamide, maleate], the values for the pKi in test [1] (setting [4]) and in test [3] were 6.01 and 5.70, respectively. The EC50 at α1A (rabbit urethra) was 0.0661 µM; at α1B (rat spleen) it was above 1000 µM; on α1D (rat aorta), above 1000 µM.
Regarding `CCS(=O)(=O)Nc1cccc(/C(=C/OC)c2c[nH]cn2)c1` [Example 46, N-{3-[(Z)-1-(1H-imidazol-4-yl)-2-methoxyethenyl]phenyl}ethanesulfonamide, maleate], the pKi in test [1] (read-out: Radioligand Binding Ki α1d (Rat)) was 6.45; in test [2], 6.26; in test [3] (hamster receptor expressed in mouse fibroblasts, [3H]-prazosin, read-out: Radioligand Binding Ki α1b (Hamster)) it was 5.94. At α1A (rabbit urethra), the EC50 was 12.6 µM.
On to `CS(=O)(=O)Nc1cccc2c1CCC=C2c1c[nH]cn1` [Example 47, N-[5-(1H-imidazol-4-yl)-7,8-dihydro-1-naphthalenyl]methanesulfonamide, maleate], for which the pKi in test [1] (setting [4]) is 5.67; in test [2] it was 6.08. Moreover, the EC50 was 28.8 µM on α1A (rabbit urethra), above 1000 µM on α1B (rat spleen) and above 1000 µM on α1D (rat aorta).

By pKi is commonly meant −log10 of the Ki, conventionally taken in molar units.

The values are drawn from US6503935B1, “Imidazoles and related compounds as α1A agonists” (Abbott Laboratories, priority 1998, dated 2003).
